The text below walks through data of patent US7056954B2, “Means for the modulation of processes mediated by retinoid receptors and compounds useful therefor” (The Salk Institute for Biological Studies, priority 1991, dated 2006).

The experiment deals with CRABP. Particulars: Table 2.

Bounds are passed on as bounds.

For `CC1=C(/C=C/C(C)=C\C=C\C(C)=C\C(=O)O)C(C)(C)CCC1`, the Kd (in general, the free concentration of one partner at which half of the binding sites on the other are occupied at equilibrium, for simple one-to-one binding) was above 100 nM.
